{"source": "paper PMC11274511", "about": "“Synthesis of Substituted 1,2,4-Triazole-3-Thione Nucleosides Using E. coli Purine Nucleoside Phosphorylase” (Biomolecules, 2024)", "test_system": "HSV-1/L2(TK+)", "details": "Strain HSV-1/L2(TK+)", "method": "Herpes simplex virus type 1 (HSV-1) strain L2 was obtained from the State’s collection of viruses at FSBI «N. F. Gamaleya National Research Centre for Epidemiology and Microbiology, Russian Ministry of Health, Russia» («D. I. Ivanovsky Institute of Virology» subdivision).\nAntiviral activity in vitro was measured by the method of the cytopathic effect (CPE) inhibition assay. In 96-well plastic plates with the 24 h generated cell monolayer, 2-fold serial dilutions of the compounds were prepared. Cells infected with MOI of 0.1 PFU/cell were incubated at 37 °C in 5% CO2 atmosphere. […] Antiviral activity was assessed by determining of IC50 and IC95.\nThree controls were used: (1) Toxicity control. Uninfected cells were incubated in the presence of the drug in the same concentration range as in the experiment. (2) Virus control. […] (3) Cell control. Uninfected cell cultures were incubated in the maintenance medium, which contained no drug.", "data": [{"substance": "5-Phenyl-1,2,4-triazole-3-thione [Compound 4]", "values": [{"measurement": "SI (ratio of CC50 to IC50)", "value": ">2"}]}]}
